How the values were obtained:
Prothrombin (Bos taurus) = Prothrombin (Bos taurus) (UniProt P00735); experiment: Inhibition of bovine thrombin-mediated blood clotting formation in presence of human fibrinogen
Prothrombin = Prothrombin (Bos taurus, UniProt P00735); experiment: Inhibition of amidase activity of bovine thrombin using BANA as substrate after 15 to 40 mins
Summary of the method: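 Bovine thrombin (topical preparation), 44.44 NIH units per assay, with Nα-benzoyl-DL-arginine-p-nitroanilide (BANA) as substrate. Run at pH 8.1 and 37° for 15-40 min. Initial velocities were measured at two substrate concentrations across a range of inhibitor concentrations. Ki was obtained graphically from Dixon plots as a competitive constant; mean ± SD, n = 3.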

Row | IC50 (Prothrombin (Bos taurus)) [µM] | Ki (Prothrombin) [µM] | SMILES
1 | 20 | 2.9 | Cl.N=C(N)c1cccc(COc2cccc3c(OCc4cccc(C(=N)N)c4)cccc23)c1
2 | 80 | 5.1 | Cl.N=C(N)c1ccc(COc2cccc3c(OCc4ccc(C(=N)N)cc4)cccc23)cc1

— ChEMBL document CHEMBL3271968, “Novel bis(benzamidino) compounds with an aromatic central link. Inhibitors of thrombin, pancreatic kallikrein, trypsin, and complement” (J Med Chem, 1976)
